Data on one compound can be found in PubChem BioAssay AID1508609 (The Scripps Research Institute Molecular Screening Center, 2020).

Chains of the proteins cited; added tags and fusions are not shown.
UniProt Q8TDV0, whole entry: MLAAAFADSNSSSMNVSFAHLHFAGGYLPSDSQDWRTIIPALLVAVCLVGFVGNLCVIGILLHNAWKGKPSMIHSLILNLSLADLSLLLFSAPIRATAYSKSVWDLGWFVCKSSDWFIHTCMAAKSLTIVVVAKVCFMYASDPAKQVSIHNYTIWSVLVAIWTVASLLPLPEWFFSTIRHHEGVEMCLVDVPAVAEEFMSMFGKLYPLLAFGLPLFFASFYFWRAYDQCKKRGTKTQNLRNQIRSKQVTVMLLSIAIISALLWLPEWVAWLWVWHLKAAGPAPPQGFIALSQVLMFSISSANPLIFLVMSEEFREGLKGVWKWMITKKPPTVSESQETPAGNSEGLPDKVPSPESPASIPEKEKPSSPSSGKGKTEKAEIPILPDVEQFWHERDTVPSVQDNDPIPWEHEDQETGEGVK

Each structure is given as a SMILES string. Only a part is listed here, and it is no random draw. The source made the active and inactive calls.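 How the source made its calls: active means mean percent activation across replicates above the confirmation screen cutoff of 4.91%; inactive means the rest.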

The target of the test is G-protein coupled receptor 151 (Homo sapiens) (UniProt Q8TDV0). The test can be described thus: GPR151 activators, triplicate retest, confirmation, cell-based, PathHunter beta-arrestin, luminescence (AID 1508609). The settings on record: GPR151 PathHunter beta-arrestin cells, 90 min, at 11.2 µM, hits give high values, % of EA-reagent control over plate median.
As for `CCCN1CCC(Nc2ccc(Cl)cc2)CC1`, the activation was inactive: 2.05%.
